The values below come from the SangsterLogP compilation.

For the series the following is noted: pH 5.0.

On to `COc1cc(OC)nc(NC(=O)NS(=O)(=O)c2ncccc2C(=O)N(C)C)n1`, for which the logD is -0.36.

By logD is commonly meant lipophilicity at a set pH, counting ionised and neutral species. Higher therefore signals higher lipophilicity.
